Assays:
PKA-N-HiBiT = PKA-N-HiBiT (Homo sapiens, UniProt P17612)
[1] = target: T1, ABL1-N-HiBiT kinase domain (Homo sapiens, UniProt P00519); settings: for EC50: read-out: SDR Ave SDR50
[2] = target: T1, ABL1-N-HiBiT kinase domain; experiment: ABL1 peptide phosphorylation, Kinase-Glo Plus (KGP) assay, ABL1-N-HiBiT

| ABL1 KGP pIC50 [2] | IC50 ([2]; read-out: ABL1 KGP Ave IC50) | Substance | SDR Ave Max Response (PKA-N-HiBiT) | ABL1 SDR pSDR50 [1] | SDR Ave Max Response [1] | EC50 [1] |
| --- | --- | --- | --- | --- | --- | --- |
|  |  | PHA-665752 | -38.24 | 5.72 | 26.87 | 1.92 µM |
| 4.79 | 17.1 µM | TAE-684 |  | 6.11 | 92.26 | 0.77 µM |

Source: paper PMC12064818, “A general assay platform to study protein pharmacology using ligand-dependent structural dynamics” (Nature Communications, 2025)
